# Where “and” joins values, the source holds several entries; their conditions need not be identical. Equal values may be shown once. The entries are a selection whose mix differs from that of the whole data set. Calls of active or inactive are those of the source. Calls come from the whole dose curve; as a rule, active = well fitted inhibition curve with a large enough effect; inconclusive = small, poorly fitted or top-dose-only effect; inactive = flat fitted curve, though single readings scatter.
# Amino acid sequences for entries named in this document (tags omitted).
# UniProt P08659, whole entry, looked up: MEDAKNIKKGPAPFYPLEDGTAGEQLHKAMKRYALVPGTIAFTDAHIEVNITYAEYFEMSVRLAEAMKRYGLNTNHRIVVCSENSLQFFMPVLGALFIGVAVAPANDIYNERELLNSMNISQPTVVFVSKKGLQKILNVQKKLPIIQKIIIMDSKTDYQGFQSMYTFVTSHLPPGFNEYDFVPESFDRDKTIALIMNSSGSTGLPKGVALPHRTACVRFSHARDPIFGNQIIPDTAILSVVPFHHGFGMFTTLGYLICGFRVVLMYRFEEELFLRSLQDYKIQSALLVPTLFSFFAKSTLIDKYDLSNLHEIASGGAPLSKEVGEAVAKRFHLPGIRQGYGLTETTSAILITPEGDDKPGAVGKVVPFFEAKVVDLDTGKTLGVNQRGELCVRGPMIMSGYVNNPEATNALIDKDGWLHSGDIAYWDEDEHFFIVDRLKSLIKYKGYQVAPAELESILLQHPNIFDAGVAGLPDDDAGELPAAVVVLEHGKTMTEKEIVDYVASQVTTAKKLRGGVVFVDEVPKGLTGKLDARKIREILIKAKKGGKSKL
# Molecular target: Luciferin 4-monooxygenase (Photinus pyralis) (UniProt P08659)
# Assay: qHTS Assay for Inhibitors of Firefly Luciferase; note: nearly all actives have a fitted effect of over 40% in size
# Settings: purified firefly luciferase, luminescence, 8 min; at 57.1 µM (top of the series) unless noted
# Procedure: To aid in the interpretation of high-throughput screening (HTS) results derived from luciferase-based assays, we used quantitative HTS, an approach that defines the concentration-response behavior of each library sample, to profile the ATP-dependent luciferase from Photinus pyralis against more than 72 000 samples. Luciferase (PKLight, Cambrex Corporation) was assayed for its ability to generate light using ATP and luciferin as substrates. The ATP concentration in the assay (10 uM) was within the linear range of enzyme activity for the assay conditions used. See following reference for further details: [1] Auld DS, Southall NT, Jadhav A, Johnson RL, Diller DJ, Simeonov A, Austin CP, Inglese J. Characterization of chemical libraries for luciferase inhibitory activity. J Med Chem. 2008 Apr 24;51(8):2372-86. Auld DS, Zhang YQ, Southall NT, Rai G, Landsman M, Maclure J, Langevin D, Thomas CJ, Austin CP, Inglese J. A Basis for Reduced Chemical Library Inhibition of Firefly Luciferase Obtained from Directed Evolution. J. Med. Chem., 2009, 52 (5), pp 1450#1458 [3] Auld DS, Thorne N, Nguyen DT, Inglese J. A specific mechanism for nonspecific activation in reporter-gene assays. ACS Chem Biol. 2008 Aug 15;3(8):463-70. Auld DS, Thorne N, Maguire WF, Inglese J. Mechanism of PTC124 activity in cell-based luciferase assays of nonsense codon suppression. Proc Natl Acad Sci U S A. 2009 Mar 3;106(9):3585-90. Inglese J, Auld DS, Jadhav A, Johnson RL, Simeonov A, Yasgar A, Zheng W, Austin CP. Quantitative high-throughput screening: a titration-based approach that efficiently identifies biological activities in large chemical libraries. Proc Natl Acad Sci U S A. 2006 Aug 1;103(31):11473-8.
# Four uL of substrate mix (final concentration, 50 mM imidazole pH 7.2, 50 mM KCl, 7 mM MgCl2, 10 uM ATP, 0.01% Tween 20, 0.05% BSA) was dispensed into white 1536 well plates. Twenty-three nL of compound was delivered by a pin tool and 2 uL of luciferase detector mix (PKLight, Cambrex) was added. Following 8-minute incubation at ambient temperature, luminescence was measured by a ViewLux (Perkin Elmer) at 5 seconds exposure/plate.
# % is set by controls: 0 for no effect and ±100 for the full control effect.
row,Compound,"activity change, negative = inhibition"
1,NC(=O)Nc1ccc([As](=O)(O)O)cc1,inactive: -1.65% [at 25.5 µM]
2,CCOP1(=S)c2c(C)nn(CCC#N)c2N=C(c2ccc(F)cc2)N1C (stereo unspecified),inactive: 1.9%
3,CCOP1(=S)c2c(C)nn(CCC#N)c2N=C(c2ccccc2F)N1C (stereo unspecified),inactive: 6.99%
4,O=P(Nc1nccs1)(c1ccccc1)c1nc2ccccc2s1 (stereo unspecified),inactive: -16.4%
5,O=[As](O)(O)c1ccc([As](=O)(O)O)cc1,inactive: 0.548% [at 11.4 µM]
6,NS(=O)(=O)Cc1ccc([As](=O)(O)O)cc1,inactive: 1.56% [at 11.4 µM]
7,O=C(CC(=O)c1ccccc1)O[C@H]1CN2CCC1CC2,inactive: 2.26% [at 11.4 µM]
8,CN(C(=O)Cc1ccc(Cl)c(Cl)c1)[C@@H]1CC[C@@]2(CCCO2)C[C@H]1N1CCCC1,inactive: 3.62%
9,Cc1cccc(OCC(=O)OC2CN3CCC2CC3)c1 (stereo unspecified),inactive: -2.03% [at 25.5 µM]
10,CN(C(=O)Cc1ccc(Cl)c(Cl)c1)[C@@H]1CCCC[C@H]1N1CCCC1,inactive: 0.882% [middle of 4 runs]
11,O=P1(Nc2ccccn2)COc2ccccc2OC1,inactive: 1.66%
12,CN(CCCl)Cc1cc(Cl)c(NC2=NCCN2)c(Cl)c1,inactive: -0.601%
13,Clc1n[nH]nc1-c1nn[nH][15n]1,inactive: 0.216%
14,O=P1(Nc2ncccn2)COc2ccccc2OC1,inactive: 1.09%
15,Cc1ccc(OCC(=O)OC2CN3CCC2CC3)cc1 (stereo unspecified),inactive: 1.53% [at 25.5 µM]
16,O=P1(Nc2ccc(Br)cn2)COc2ccccc2OC1,inactive: 1.31%
17,Cc1nn(-c2ccccc2)c2c1P(=O)(N1CCOCC1)N(C)C(c1ccccc1)=N2 (stereo unspecified),inactive: 1.54%
18,COP1(=S)c2c(C)nn(CCC#N)c2N=C(c2ccc(F)cc2)N1C (stereo unspecified),inactive: -33.7%
19,O=C(COc1ccccc1)OC1CN2CCC1CC2 (stereo unspecified),inactive: 0.139%
20,O=C(O)[C@@H](O)c1ccc([As](=O)(O)O)cc1,inactive: 2.15% [at 11.4 µM]
21,O=C(OC1CN2CCC1CC2)C12CC3CC(CC(C3)C1)C2 (stereo unspecified),inactive: 0.182%

row,Compound,"activity change, negative = inhibition"
1,NC(=O)Nc1cc([As](=O)(O)O)cc(I)c1O,inactive: 2.52% [at 11.4 µM]
2,O=[As]c1ccc(S(=O)(=O)NCCO)cc1 (stereo unspecified),inactive: -13.2% [at 11.4 µM]
3,[N-]=[N+]=NCC(N)=O,inactive: 4.54% [at 11.4 µM]
4,[N-]=[N+]=NCC(O)CN=[N+]=[N-] (stereo unspecified),inactive: 2.22% [at 11.4 µM]
5,C(Cc1nn[nH]n1)c1nn[nH]n1,inactive: -0.115% [at 11.4 µM]
6,CN(C(=O)Cc1ccc(Cl)c(Cl)c1)[C@H]1CCCC[C@@H]1N1CCCC1,inactive: 3.49% and inactive: -2.05% and inactive: -0.451%
7,Cc1c2non([O-])c-2c(C)[n+](=O)[n+]1[O-],inactive: -9.14%
8,NCC[C@@H](N)CSP(=O)(O)O,inactive: 2.11% [at 11.4 µM]
9,O=[N+]([O-])c1ccc(C[As](=O)(O)O)cc1,inactive: 1.4% [at 11.4 µM]
10,O=C(CO)Nc1ccc([As](=O)(O)O)cc1,inactive: 1.32% [at 11.4 µM]
11,CCc1nc2c(n1)c1c(non1O)c1c2no[n+]1[O-],inactive: -3.06%
12,CN(C(=O)Cc1ccccc1)[C@@H]1CC[C@@]2(CCCO2)C[C@H]1N1CCCC1,inactive: -0.257%
13,O=C(OC1CN2CCC1CC2)c1cccc(Cl)c1 (stereo unspecified),inactive: 2.7%
14,[N-]=[N+]=Nc1ccc([As](=O)(O)O)cc1,inactive: -1.4% [at 11.4 µM]
15,CN1CCC[C@H](OC(=O)C(c2ccccc2)c2ccccc2)C1,inactive: -1.53% [at 11.4 µM]
16,C[C@@H](O)COc1ccc([As](=O)(O)O)cc1N,inactive: -0.238% [at 11.4 µM]
17,O=P(Nc1nccs1)(c1ccccc1)c1ccccc1,inactive: 6.03%
18,c1nnnn1CCn1cnnn1,inactive: 2.13%
19,O=P1(Nc2nc3ccc(Cl)cc3s2)COc2ccccc2O1 (stereo unspecified),inactive: -8.91%
20,COC(=O)c1cc2c(s1)N=C(c1ccccc1)N(C)P2(=O)N1CCOCC1 (stereo unspecified),inactive: 0.0889%

# Source: PubChem BioAssay AID411 (National Center for Advancing Translational Sciences (NCATS), 2006)
